Among the data in paper PMC3030337 (The Journal of Biological Chemistry, 2010) are IC50 and Ki values, retold here.

The target of assay [1] is T1, PvGGPPS (P. vivax geranylgeranyl pyrophosphate synthase, PVX_092040) (Plasmodium vivax, UniProt A5K4U6, N206D/T113M). The assay is described as follows: biochemical.
Assay [2] has as its target T1, PvGGPPS (P. vivax geranylgeranyl pyrophosphate synthase, PVX_092040). The assay is described as follows: biochemical. This is another data set of the same source.

A word on the IC50: it is the concentration that inhibits the measured activity by half. A higher IC50 goes with weaker potency. What is called Ki is the dissociation constant of the complex between target and ligand, obtained from inhibition or displacement. The low end stands for tighter binding, the high end for weaker binding. In assay [1], `O=P(O)(O)C(O)(Cn1ccnc1)P(=O)(O)O` [ZOL] came in with an IC50 of 0.0433 ± 0.0033 µM. The same compound came in with an inhibitory constant (Ki) in assay [2] of 0.0107 ± 0.0012 µM.
